Laboratory results as given in EP4840863A1, “FLUORINE-CONTAINING PARTHENOLIDE DERIVATIVE, PREPARATION METHOD THEREFOR AND USE THEREOF” (dated 2026).

Columns and labels:
Huh-7 = test: Anticancer activity test (CCK-8), Huh-7 cells; settings: 72 h, Table 1-1
Protocol: Cells in logarithmic growth phase were digested, centrifuged, and counted; the cell suspension was adjusted to a concentration of 1500-3500 cells/well, and 95 µL was seeded into each well of a 96-well plate.
After continued overnight culture, drugs at different concentrations were added to the plate, with six replicate wells for each concentration. 10 µL of the drug was added to each well, followed by incubation for 72 h. Then, 10 µL of CCK-8 solution was added to each well (care should be taken to avoid generating bubbles in the wells, as they can affect the OD reading). After incubation in the incubator for 1-4 h, the OD value at 450 nm was measured using a microplate reader. The experiment to assess the effect of each drug on each cell line at different time points was repeated three times.
Data were processed using EXCEL software to calculate the inhibition rate at different concentrations, and SPSS was used to fit the IC50 value. EXCEL was used to calculate the mean and standard deviation of the three IC50 values. Inhibition rate % = {1 - (OD value of drug well - OD value of blank well) / (OD value of control well - OD value of blank well) } * 100%. Table 1-1 Activity of Compounds in Inhibiting Cancer Cells

[1] = Release of Compound 4 in buffer solution (HPLC); settings: 0.01 M HEPES buffer solution (pH=7.4), 37°C, 0-4 h
Protocol: Compound 4 was taken and prepared into a test solution of approximately 10 µg/mL using a 0.01 M HEPES buffer solution (pH=7.4). The solution was placed in a 37°C water bath for incubation. At 0 h, 0.5 h, 1 h, 2 h, and 4 h, an appropriate amount of Compound 4 was taken out. The concentrations of Compound 4 and its degradation products were analyzed by HPLC to investigate the release rate of Compound 4.

| pIC50 (Huh-7) | SMILES | Release of Compound 4 in buffer solution [1] |
| --- | --- | --- |
| 5.28 | CN(C)CC1C(=O)OC2C1CCC(CC(F)(F)F)=CCCC1(C)OC21 (stereo not drawn) [Compound 4] | can slowly release the active substance, Compound 1 |
| 5.72 | C=C1C(=O)OC2C1CCC(CC(F)(F)F)=CCCC1(C)OC21 (stereo not drawn) |  |

pIC50: −log10 of the molar value.
